# Article PMC4762448 (Journal of biomolecular screening, 2011)
# By UniProt entry, the sequences of proteins in these tests, tags left out. Residues count along the entry.
# UniProt P17787, 26-502: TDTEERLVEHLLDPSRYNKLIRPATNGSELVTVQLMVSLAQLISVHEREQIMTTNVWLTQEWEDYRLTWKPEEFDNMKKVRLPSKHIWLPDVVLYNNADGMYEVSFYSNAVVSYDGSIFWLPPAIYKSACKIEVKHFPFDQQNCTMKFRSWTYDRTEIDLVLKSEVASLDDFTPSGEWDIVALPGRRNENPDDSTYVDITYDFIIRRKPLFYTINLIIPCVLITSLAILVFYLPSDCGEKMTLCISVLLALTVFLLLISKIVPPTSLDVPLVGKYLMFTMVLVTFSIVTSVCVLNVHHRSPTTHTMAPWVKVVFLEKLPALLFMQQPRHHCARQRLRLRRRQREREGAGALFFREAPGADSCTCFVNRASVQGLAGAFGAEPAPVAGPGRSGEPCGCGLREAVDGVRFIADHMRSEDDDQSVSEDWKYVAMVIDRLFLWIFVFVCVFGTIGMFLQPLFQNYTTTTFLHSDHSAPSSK
# UniProt P43681, 29-627: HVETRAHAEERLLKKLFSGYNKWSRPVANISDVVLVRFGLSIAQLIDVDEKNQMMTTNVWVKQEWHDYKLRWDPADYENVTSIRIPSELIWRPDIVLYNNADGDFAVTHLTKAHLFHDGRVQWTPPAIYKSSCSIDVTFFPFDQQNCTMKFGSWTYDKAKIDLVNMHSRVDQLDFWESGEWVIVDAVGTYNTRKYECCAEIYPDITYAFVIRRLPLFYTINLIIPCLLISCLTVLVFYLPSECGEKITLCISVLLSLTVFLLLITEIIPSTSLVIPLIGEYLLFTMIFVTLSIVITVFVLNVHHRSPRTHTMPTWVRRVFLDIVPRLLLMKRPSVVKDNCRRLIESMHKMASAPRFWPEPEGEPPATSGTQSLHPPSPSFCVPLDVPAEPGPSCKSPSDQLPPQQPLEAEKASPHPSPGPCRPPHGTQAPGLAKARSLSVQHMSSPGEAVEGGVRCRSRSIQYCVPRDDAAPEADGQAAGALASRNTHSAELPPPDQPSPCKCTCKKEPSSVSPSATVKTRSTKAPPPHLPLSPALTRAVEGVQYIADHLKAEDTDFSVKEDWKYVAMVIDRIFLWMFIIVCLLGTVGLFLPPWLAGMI
# Target: α4β2nAChR (Homo sapiens, UniProt P17787+P43681)
# Assay: LGIC-CNiFER membrane potential dye assay in HEK cells, α4β2nAChR
# Assay type: cell-based
# Details: 10 µM
smiles,measurement,value
"CO[C@H]1CC=C2CCN3CCC4=C(CC(=O)OC4)[C@]23C1 [DHBE, dihydro-beta-erythroidine]","percent inhibition, α4β2nAChR",86 ± 6.4%
